Data: patent US20120094295A1, “NEURODEGENERATIVE DISEASE DIAGNOSTIC COMPOSITIONS AND METHODS OF USE” (The Johns Hopkins University, priority 2008, published 2012)

Test system: glutamate transport
Assay: Functional glutamate transport in synaptosomal preparations from brain cortex of treated mice
Format: in vivo, mouse
Conditions: WT mice, 12.5 or 25 mg/kg/day oral, 10 days

SMILES: CS(=O)(=O)c1ccc([C@@H](O)[C@@H](CO)NC(=O)C(Cl)Cl)cc1 [TAP, thiamphenicol]
- functional glutamate transport in cortical synaptosomal preparations: TAP-dependent increase in functional glutamate transport
